# scFv variants of Ab-95 (light chain) against a SARS-CoV-2 spike peptide

The target is the same throughout: PDVDLGDISGINAS, from the HR2 region of SARS-CoV-2 spike.

Parent scFv Ab-95: VH joined to VL by the linker GGGGSGGGGSGGGGS. Changes lie in the light chain CDRs alone.
VH: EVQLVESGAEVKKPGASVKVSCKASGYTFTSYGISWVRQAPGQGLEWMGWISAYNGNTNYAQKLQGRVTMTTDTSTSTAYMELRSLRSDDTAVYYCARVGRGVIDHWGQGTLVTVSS
VL: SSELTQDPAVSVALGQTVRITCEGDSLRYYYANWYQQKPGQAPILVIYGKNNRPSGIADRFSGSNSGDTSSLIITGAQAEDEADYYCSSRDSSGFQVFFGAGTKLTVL

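Phage display of a naive human antibody library on the peptide gave the parent. In library AAYL52, one, two or three CDR residues were substituted; doubles and triples were drawn at random. In AlphaSeq, yeast of one mating type display the scFv and yeast of the other type display the target. The frequency of each diploid, read from paired DNA barcodes, reflects how well the two displayed proteins bind. Each replicate has its own calibration line, from reference interactions of the BCL2 family. Mating was done three times.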

Substitutions are numbered in sequence along the VL above, starting at 1 (not Kabat). Scale: log10 of Kd in nM, estimated from mating counts; low values are strong binders. A pair that was not seen in that replicate is written "ND"; this usually means weak binding, but a binder can also be missed. In this assay the parent's reference entry averaged 2.31; its copy inside this library read 2.25. Empty control strains, which show no peptide, gave a signal in 28% of pairings with library AAYL52; the median was 3.91 and 95% of these signals were weaker than 2.90. No background was subtracted. For each scFv, signals with the empty controls are counted beside the result, with their mean in brackets.

| # | changes | log10 Kd, replicates | signal with controls |
|---|---|---|---|
| 1 | Y29V Y30W G94M | 3.48 / 3.90 / ND | 2/9 (4.57) |
| 2 | S26T S88D F98E | 4.69 / 5.06 / ND | 2/9 (4.42) |
| 3 | R28E Y30V S93V | 2.95 / 2.44 / 2.40 | 5/9 (4.42) |
| 4 | E23C D25I | 3.03 / 3.12 / 3.51 | 0/9 |
| 5 | G49H G94C V97A | 4.08 / 3.13 / 4.67 | 2/9 (4.14) |
| 6 | S26L Y31G N52I | 2.38 / 3.03 / 2.50 | 6/9 (3.65) |
| 7 | L27I N33M R90Q | 4.82 / ND / ND | 0/9 |
| 8 | Y30T D91H S93Y | 2.18 / 1.91 / 3.00 | 4/9 (3.29) |
| 9 | N33T R53C Q96R | 4.36 / ND / ND | 2/9 (3.78) |
| 10 | S93K F95L F98D | 4.22 / ND / ND | 1/9 (4.63) |
| 11 | D25M L27P V97S | ND / 5.28 / ND | 1/9 (4.78) |
| 12 | G49E N51M N52G | 3.25 / 3.48 / 4.28 | 5/9 (4.22) |
| 13 | K50G N51V D91T | 3.59 / 3.18 / 2.32 | 2/9 (3.46) |
| 14 | G24L N51Q F95N | ND / ND / ND | 3/9 (3.58) |
| 15 | D25L S55P R90F | 2.82 / 2.87 / 2.28 | 6/9 (4.04) |
| 16 | P54G S92I Q96W | 3.52 / 3.18 / 3.38 | 2/9 (4.79) |
| 17 | S26W P54G S92M | 2.80 / 2.16 / 2.94 | 4/9 (4.22) |
| 18 | E23M R53P F98P | 4.14 / 3.76 / ND | 5/9 (3.64) |
| 19 | A32N P54V V97A | 3.25 / ND / ND | 4/9 (4.15) |
| 20 | Y31F P54F F98W | 3.40 / 5.05 / ND | 1/9 (5.66) |
| 21 | R28K Y31S F95L | 2.25 / 2.49 / 2.46 | 3/9 (3.63) |
| 22 | G24C Y30R F98S | 2.72 / 2.51 / 2.05 | 2/9 (3.99) |
| 23 | Y29D K50D N52K | 1.48 / 1.49 / 0.95 | 4/9 (3.82) |
| 24 | G49F N52I S93D | 3.01 / ND / 3.76 | 1/9 (3.26) |
| 25 | D91P G94F F98A | 4.23 / 3.09 / ND | 2/9 (3.73) |
| 26 | N51T S92V V97E | ND / ND / 4.46 | 4/9 (4.01) |
| 27 | E23L S88T F95N | 4.24 / 4.73 / ND | 3/9 (3.39) |
| 28 | N33E S88M | 3.62 / ND / ND | 1/9 (3.83) |
| 29 | R90G Q96L V97M | 3.69 / 3.66 / ND | 4/9 (4.59) |
| 30 | Y31C D91F Q96F | 3.15 / 4.72 / ND | 3/9 (3.96) |
| 31 | L27C Y30M S55T | ND / ND / 4.35 | 2/9 (4.30) |

Data: MIT Lincoln Laboratory AlphaSeq set, Engelhart et al. 2022, doi:10.1038/s41597-022-01779-4, as distributed in FLAb.